{"source": "patent EP1961762A1", "about": "“Inhibitors of protein phosphatase 1/GADD34, preparation and uses thereof” (Institut Gustave Roussy, priority 2007, dated 2008)", "system": "CRT and/or ERp57", "experiment": "Immunofluorescence staining of unfixed human tumour cell lines", "type": "cell-based", "conditions": "variety of human tumour cell lines"}
{"molecule": "O=C1c2c(O)ccc(O)c2C(=O)c2c(NCCNCCO)ccc(NCCNCCO)c21", "note": "[mitoxantrone]", "values": [{"measurement": "exposure of CRT and/or ERp57 on the cell surface", "value": "expose CRT and/or ERp57 on the surface"}]}
